The record followed here is publication PMC3728706.

The experiment addresses fluorescently labeled peptide derived from the C-terminus of β-catenin. Nature of the experiment: fluorescence polarisation.

As for “Neurabin-1 PDZ domain (domain or fragment)”, the Kd – broadly, the concentration at which binding is half-saturated – was found to be 176 µM.

B1: Dvl1 PDZ domain (domain or fragment)
chain: TVTLNMERHHFLGISIVGQSNDRGDGGIYIGSIMKGGAVAADGRIEPGDMLLQVNDVNFENMSNDDAVRVLRE
B1 returned a Kd of 79 µM.

B2: Dvl3 PDZ domain (domain or fragment)
chain: TVTLNMEKYNFLGISIVGQSNERGDGGIYIGSIMKGGAVAADGRIEPGDMLLQVNEINFENMSNDDAVRVLRE
On to B2, for which the dissociation constant (Kd) amounted to 155 µM.
